{"source": "patent US20100304418A1", "about": "“Compositions and Methods for Monitoring Flow Through Fluid Conducting and Containment Systems” (priority 2007, published 2010)", "key": {"[1]": {"assay": "Robustness of biotin in contact with corrosion inhibitor", "conditions": "50 mM, 1:10 with corrosion inhibitor TROS787c, 2 hours, then 1:5000 in formation water"}, "Skeletonema costatum": {"tested_on": "Skeletonema costatum", "assay": "Toxicity to marine unicellular algae, ISO DP 10253 (1998) Standard Method", "conditions": "at 4462.48 mg/L"}}, "data": [{"compound": "O=C(O)CCCC[C@@H]1SC[C@@H]2NC(=O)N[C@@H]21", "note": "[biotin]", "values": [{"measurement": "effect of corrosion inhibitor on biotin", "setting": "[1]", "value": "No significant affect"}, {"measurement": "toxic effect to S. costatum", "setting": "Skeletonema costatum", "value": "no toxic effect"}]}]}
